Test system: INS1
Assay: Cytoprotective activity in endoplasmic reticulum stressed rat INS-1 cells assessed as rescue from tunicamycin-mediated reduction in cell survival after 72 hrs by CellTiter-Glo assay
Type: functional, cell-based

Cc1c(C(=O)Nc2cccc(F)c2)nnn1-c1ccc(C(C)C)cc1
Activity: Dose-dependent effect

Source: ChEMBL document CHEMBL3797120, “Identification of 1,2,3-triazole derivatives that protect pancreatic β cells against endoplasmic reticulum stress-mediated dysfunction and death through the inhibition of C/EBP-homologous protein expression” (Bioorg Med Chem, 2016)
